“And” between values parts separate entries of the source, which are not always exact repeats. Equal entries are not always repeated. The source made the active and inactive calls. The calls are words filed in the database; no cut-off is given here.
Legend:
[1] = target: T1, Sterol O-acyltransferase 1 (Cricetulus griseus) (UniProt Q60457); test: Compound was tested for the change in serum cholesterol (SC) levels by the inhibition of ACAT in hamster at 50 mg/kg p.o.
T1 sequence (whole entry): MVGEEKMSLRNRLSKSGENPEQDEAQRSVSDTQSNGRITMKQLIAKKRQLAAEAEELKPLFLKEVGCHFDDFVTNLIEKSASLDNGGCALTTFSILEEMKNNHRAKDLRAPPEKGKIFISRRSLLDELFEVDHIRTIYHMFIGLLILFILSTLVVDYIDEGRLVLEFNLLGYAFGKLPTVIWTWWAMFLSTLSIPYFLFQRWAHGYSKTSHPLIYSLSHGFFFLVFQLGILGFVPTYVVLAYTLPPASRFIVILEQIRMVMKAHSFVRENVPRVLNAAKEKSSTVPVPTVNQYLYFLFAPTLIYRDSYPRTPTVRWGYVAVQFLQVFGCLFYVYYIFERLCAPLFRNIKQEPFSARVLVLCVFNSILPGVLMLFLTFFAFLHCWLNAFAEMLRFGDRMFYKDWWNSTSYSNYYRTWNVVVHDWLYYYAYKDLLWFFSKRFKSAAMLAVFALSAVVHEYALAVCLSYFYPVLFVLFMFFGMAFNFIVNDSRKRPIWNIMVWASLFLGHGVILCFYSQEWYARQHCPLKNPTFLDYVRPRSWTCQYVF

By UniProt entry, the sequences of proteins in these tests, tags left out. Where a name states a change or a piece, a line headed by the entry shows the natural chain unless it says otherwise.
UniProt P11388: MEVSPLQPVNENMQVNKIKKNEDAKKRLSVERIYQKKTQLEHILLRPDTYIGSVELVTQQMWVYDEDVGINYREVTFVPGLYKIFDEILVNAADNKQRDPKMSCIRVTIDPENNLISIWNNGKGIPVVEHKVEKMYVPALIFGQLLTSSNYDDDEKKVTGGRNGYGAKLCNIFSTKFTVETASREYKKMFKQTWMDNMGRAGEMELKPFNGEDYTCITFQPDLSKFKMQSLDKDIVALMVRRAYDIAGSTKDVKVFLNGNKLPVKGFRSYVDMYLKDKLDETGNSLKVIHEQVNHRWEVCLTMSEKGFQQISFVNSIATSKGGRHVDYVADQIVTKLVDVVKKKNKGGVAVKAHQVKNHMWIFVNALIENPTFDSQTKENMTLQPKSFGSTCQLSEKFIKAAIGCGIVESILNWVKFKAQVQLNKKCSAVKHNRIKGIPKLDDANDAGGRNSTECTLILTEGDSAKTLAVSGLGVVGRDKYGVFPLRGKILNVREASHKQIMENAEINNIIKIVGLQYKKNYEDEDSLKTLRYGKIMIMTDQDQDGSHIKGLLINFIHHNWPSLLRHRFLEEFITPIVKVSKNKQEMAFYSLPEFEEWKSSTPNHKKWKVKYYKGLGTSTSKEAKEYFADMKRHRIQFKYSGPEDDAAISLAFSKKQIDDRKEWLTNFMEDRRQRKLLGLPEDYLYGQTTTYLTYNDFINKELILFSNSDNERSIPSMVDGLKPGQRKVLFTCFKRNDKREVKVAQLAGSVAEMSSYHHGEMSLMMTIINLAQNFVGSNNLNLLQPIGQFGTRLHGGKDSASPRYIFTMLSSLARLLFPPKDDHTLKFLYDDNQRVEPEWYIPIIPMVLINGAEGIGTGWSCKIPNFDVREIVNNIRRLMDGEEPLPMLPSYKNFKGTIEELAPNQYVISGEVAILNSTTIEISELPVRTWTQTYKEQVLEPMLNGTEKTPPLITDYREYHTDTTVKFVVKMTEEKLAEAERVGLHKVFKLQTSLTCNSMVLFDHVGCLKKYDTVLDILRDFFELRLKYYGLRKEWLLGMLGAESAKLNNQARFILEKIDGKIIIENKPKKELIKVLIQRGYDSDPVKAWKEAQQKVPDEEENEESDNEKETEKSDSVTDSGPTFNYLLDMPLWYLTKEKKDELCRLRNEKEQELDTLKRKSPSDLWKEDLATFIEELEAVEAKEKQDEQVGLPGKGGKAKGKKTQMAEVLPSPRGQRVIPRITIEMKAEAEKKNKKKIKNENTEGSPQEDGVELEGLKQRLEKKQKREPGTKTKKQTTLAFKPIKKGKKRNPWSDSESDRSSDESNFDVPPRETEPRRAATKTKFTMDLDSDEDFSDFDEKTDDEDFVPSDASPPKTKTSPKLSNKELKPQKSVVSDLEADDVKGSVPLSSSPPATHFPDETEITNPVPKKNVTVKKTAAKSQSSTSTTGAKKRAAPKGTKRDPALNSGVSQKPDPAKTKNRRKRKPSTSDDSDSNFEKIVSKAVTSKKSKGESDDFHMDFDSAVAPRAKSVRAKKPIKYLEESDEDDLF
UniProt Q02880: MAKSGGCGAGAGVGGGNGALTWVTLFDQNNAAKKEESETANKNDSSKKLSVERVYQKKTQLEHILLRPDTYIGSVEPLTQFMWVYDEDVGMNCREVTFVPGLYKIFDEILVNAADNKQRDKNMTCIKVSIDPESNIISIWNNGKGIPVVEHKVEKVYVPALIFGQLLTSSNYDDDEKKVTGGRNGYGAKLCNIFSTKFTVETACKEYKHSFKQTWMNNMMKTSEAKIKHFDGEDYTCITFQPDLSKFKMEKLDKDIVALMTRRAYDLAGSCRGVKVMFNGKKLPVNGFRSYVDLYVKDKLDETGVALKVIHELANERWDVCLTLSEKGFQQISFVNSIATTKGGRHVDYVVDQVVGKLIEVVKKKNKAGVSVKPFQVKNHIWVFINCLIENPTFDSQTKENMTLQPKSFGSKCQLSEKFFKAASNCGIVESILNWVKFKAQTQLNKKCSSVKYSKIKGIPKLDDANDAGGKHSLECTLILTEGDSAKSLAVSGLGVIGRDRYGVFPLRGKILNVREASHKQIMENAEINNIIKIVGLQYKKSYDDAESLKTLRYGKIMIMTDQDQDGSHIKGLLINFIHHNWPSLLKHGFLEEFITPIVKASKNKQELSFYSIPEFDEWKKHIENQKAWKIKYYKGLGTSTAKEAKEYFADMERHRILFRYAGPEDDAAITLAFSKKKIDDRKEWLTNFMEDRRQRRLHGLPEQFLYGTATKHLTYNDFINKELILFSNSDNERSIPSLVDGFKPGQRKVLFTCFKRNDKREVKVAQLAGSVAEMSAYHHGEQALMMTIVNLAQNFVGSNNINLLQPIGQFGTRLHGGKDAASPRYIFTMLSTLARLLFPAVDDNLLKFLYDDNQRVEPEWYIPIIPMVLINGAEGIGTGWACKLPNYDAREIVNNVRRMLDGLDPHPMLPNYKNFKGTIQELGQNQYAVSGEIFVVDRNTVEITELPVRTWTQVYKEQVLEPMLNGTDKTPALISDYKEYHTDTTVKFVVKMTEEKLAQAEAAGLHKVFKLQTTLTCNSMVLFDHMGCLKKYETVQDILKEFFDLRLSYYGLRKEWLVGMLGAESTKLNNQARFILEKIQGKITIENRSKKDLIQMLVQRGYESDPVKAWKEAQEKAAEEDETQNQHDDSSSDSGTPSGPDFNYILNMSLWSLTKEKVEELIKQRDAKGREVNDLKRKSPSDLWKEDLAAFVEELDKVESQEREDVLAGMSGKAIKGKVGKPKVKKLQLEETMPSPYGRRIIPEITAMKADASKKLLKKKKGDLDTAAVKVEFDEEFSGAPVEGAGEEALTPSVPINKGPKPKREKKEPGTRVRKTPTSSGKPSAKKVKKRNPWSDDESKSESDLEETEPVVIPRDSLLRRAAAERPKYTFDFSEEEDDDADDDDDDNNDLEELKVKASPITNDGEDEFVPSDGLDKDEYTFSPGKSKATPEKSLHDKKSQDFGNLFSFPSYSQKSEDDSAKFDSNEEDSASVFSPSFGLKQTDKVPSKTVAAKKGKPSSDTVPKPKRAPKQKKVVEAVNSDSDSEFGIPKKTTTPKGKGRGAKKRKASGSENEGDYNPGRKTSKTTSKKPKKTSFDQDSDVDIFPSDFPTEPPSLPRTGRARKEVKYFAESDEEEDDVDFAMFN

[2] = target: T1, Sterol O-acyltransferase 1 (Cricetulus griseus); test: Compound was tested for the change in liver cholesteryl ester (CE) levels by the inhibition of ACAT in hamster at 50 mg/kg p.o.; NE=No effect
[3] = target: T2, Sterol O-acyltransferase 1 (Rattus norvegicus) (UniProt O70536); test: Compound was tested for the change in serum cholesterol (SC) levels by the inhibition of ACAT in cholesterol fed rat
T2 sequence (whole entry): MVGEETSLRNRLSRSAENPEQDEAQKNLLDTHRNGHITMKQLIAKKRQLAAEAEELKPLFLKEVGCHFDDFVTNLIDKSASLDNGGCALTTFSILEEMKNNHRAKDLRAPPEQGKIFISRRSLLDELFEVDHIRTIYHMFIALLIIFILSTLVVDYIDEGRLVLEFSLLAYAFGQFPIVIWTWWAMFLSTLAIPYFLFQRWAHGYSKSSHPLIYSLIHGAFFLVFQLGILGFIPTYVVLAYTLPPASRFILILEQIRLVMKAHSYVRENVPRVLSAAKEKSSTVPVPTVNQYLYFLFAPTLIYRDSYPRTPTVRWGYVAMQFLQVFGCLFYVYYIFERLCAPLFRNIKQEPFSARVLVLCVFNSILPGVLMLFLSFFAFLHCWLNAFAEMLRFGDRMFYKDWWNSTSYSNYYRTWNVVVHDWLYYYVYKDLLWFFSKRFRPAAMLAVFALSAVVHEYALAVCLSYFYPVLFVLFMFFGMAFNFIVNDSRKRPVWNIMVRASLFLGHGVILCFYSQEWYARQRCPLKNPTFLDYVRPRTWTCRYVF

[4] = target: T1, Sterol O-acyltransferase 1 (Cricetulus griseus); test: Compound was tested for the change in serum cholesterol (SC) levels by the inhibition of ACAT in hamster at 10 mg/kg p.o.
[5] = target: T3, Sterol O-acyltransferase 1 (Homo sapiens) (UniProt P35610); test: In vitro percent inhibition against Acyl coenzyme A:cholesterol acyltransferase (ACAT) at a dose of 25 uM
T3 sequence (whole entry): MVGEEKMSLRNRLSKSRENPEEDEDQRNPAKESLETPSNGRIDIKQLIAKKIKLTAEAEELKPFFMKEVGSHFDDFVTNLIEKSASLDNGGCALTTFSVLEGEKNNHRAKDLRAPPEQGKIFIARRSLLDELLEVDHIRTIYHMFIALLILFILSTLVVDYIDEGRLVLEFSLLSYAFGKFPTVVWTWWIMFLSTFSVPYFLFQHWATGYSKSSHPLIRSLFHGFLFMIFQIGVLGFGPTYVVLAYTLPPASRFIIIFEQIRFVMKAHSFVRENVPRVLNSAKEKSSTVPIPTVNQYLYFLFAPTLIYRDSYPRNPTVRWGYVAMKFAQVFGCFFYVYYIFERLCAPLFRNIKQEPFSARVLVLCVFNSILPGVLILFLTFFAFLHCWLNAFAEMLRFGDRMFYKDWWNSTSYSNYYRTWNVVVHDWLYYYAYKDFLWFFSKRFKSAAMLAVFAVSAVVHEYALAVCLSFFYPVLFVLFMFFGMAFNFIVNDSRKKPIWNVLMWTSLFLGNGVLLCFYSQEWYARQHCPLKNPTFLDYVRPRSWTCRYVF

[6] = target: T1, Sterol O-acyltransferase 1 (Cricetulus griseus); test: Compound was tested for the change in serum cholesterol (SC) levels by the inhibition of ACAT in hamster at 100 mg/kg p.o.; NE=No effect
[7] = target: T1, Sterol O-acyltransferase 1 (Cricetulus griseus); test: Compound was tested for the change in liver cholesteryl ester (CE) levels by the inhibition of ACAT in hamster at 100 mg/kg p.o.; NE=No effect
[8] = target: T1, Sterol O-acyltransferase 1 (Cricetulus griseus); test: Compound was tested for the change in liver cholesteryl ester (CE) levels by the inhibition of ACAT in hamster at 50 mg/kg p.o.
[9] = target: T1, Sterol O-acyltransferase 1 (Cricetulus griseus); test: Compound was tested for the change in serum cholesterol (SC) levels by the inhibition of ACAT in hamster at 100 mg/kg p.o.
[10] = target: T1, Sterol O-acyltransferase 1 (Cricetulus griseus); test: Compound was tested for the change in liver cholesteryl ester (CE) levels by the inhibition of ACAT in hamster at 100 mg/kg p.o.
[11] = Compound was tested for topoisomerase mediated cleavage of DNA; Each + indicates a 2 to 4 fold increase
[12] = target: DNA topoisomerase II (Homo sapiens) (UniProt P11388+Q02880); test: Compound was tested for DNA Topoisomerase II mediated cleavage of DNA; Each (+) indicates 1 to 2 -fold increase
Mus musculus = test: Compound was evaluated for the analgesic activity by administering through subcutaneous route in hotplate test; G means not active until 25 mg/Kg Sc
[13] = target: T1, Sterol O-acyltransferase 1 (Cricetulus griseus); test: Compound tested for the change in liver cholesteryl ester (CE) levels by the inhibition of ACAT in hamster at 50 mg/kg p.o.; NE=No effect
[14] = target: T1, Sterol O-acyltransferase 1 (Cricetulus griseus); test: Compound was tested for the change in serum cholesterol (SC) levels by the inhibition of ACAT in hamster at 50 mg/kg p.o.; NE=No effect
[15] = target: T1, Sterol O-acyltransferase 1 (Cricetulus griseus); test: Compound tested for the change in liver cholesteryl ester (CE) levels by the inhibition of ACAT in hamster at 100 mg/kg p.o.; NE=No effect
[16] = target: T1, Sterol O-acyltransferase 1 (Cricetulus griseus); test: Compound was tested for the change in serum cholesterol (SC) levels by the inhibition of ACAT in hamster at 5 mg/kg p.o.
[17] = target: T1, Sterol O-acyltransferase 1 (Cricetulus griseus); test: Compound was tested for the change in liver cholesteryl ester (CE) levels by the inhibition of ACAT in hamster at 5 mg/kg p.o.

CC[C@@]1(CCCc2ccccc2)C(=O)N(c2c(OC)cc(OC)cc2OC)[C@@H]1c1ccccc1
Change in cholesterol [1]: No effect
Change in cholesterol [2]: -31%

COc1ccc([C@@H]2[C@@H](CCCc3ccccc3)C(=O)N2c2ccc(OC)cc2)cc1
ED50 [3]: 2 mg/kg
Change in cholesterol [4]: -21% and -43%

CCCCCCCC/C=C\CCCCCCCC(=O)N1C[C@H](c2ccccc2)[C@H]1c1ccccc1
inhibition [5]: 4%
Change in cholesterol [6]: inactive
Change in cholesterol [7]: inactive

CCCCCCCCCCC(C)(C)C(=O)Nc1c(OC)cc(OC)cc1OC
Change in cholesterol [1]: -10%
Change in cholesterol [8]: -67%

COc1ccc(N2C(=O)[C@@](C(=O)Cc3ccccc3)(c3ccccc3)[C@H]2c2ccccc2)cc1
inhibition [5]: 4%
Change in cholesterol [9]: -10%
Change in cholesterol [10]: -26%

CC[C@]1(c2ccccc2)C(=O)N(c2ccc(OC)cc2)[C@@H]1c1ccccc1
Change in cholesterol [1]: -15%
Change in cholesterol [8]: -39%

COc1ccc(N2C(=O)[C@@](CCCc3ccccc3)(c3ccccc3)[C@H]2c2ccccc2)cc1
Change in cholesterol [1]: -11%
Change in cholesterol [8]: -16%

COc1cc(NS(C)(=O)=O)ccc1Nc1c2ccccc2nc2ccccc12
Activity [11]: +
Activity [12]: ++

OC1CCN(C2(c3ccccc3)CCCCC2)CC1
ED50 (Mus musculus): inactive

COc1ccc(N2C(=O)[C@H](CCCc3ccccc3)[C@H]2c2ccccc2)cc1
Change in cholesterol [1]: No effect
Change in cholesterol [13]: -15%

CCCCCCCCCC[C@H]1C(=O)N(c2ccc(OC)cc2)[C@@H]1c1ccccc1
Change in cholesterol [14]: inactive
Change in cholesterol [2]: inactive

CC[C@]1(CCCc2ccccc2)C(=O)N(c2ccc(OC)cc2)[C@@H]1c1ccccc1
Change in cholesterol [1]: 12%
Change in cholesterol [8]: -29%

COc1ccc(N2C(=O)[C@H](c3ccccc3)[C@H]2c2ccccc2)cc1
inhibition [5]: 64%
Change in cholesterol [6]: inactive
Change in cholesterol [15]: inactive

Nc1ccc(CC(NC(=O)C(c2ccccc2)c2ccccc2)c2ccccc2)cc1 (configuration not stated)
Change in cholesterol [1]: No effect
Change in cholesterol [2]: -80%

O=C(N[C@@H]1c2ccccc2C[C@@H]1c1ccc(O)cc1)C(c1ccccc1)c1ccccc1
Change in cholesterol [16]: -7%
Change in cholesterol [17]: -88%
